From patent publication US10398592B2, “Diagnostic methods and apparatus” (ForSight Vision4, Inc., priority 2011, dated 2019)
Like-named read-outs stand apart in the source and are kept apart here.

How the values were obtained:
[1] = hydrodynamic diameter of model proteins; cited from earlier work
[2] = Diffusion coefficients and equivalent size estimated from molecular weight; assay type: physicochemical
Excerpt: If the reservoir solution is aqueous or has a viscosity similar to water, the value for the diffusion coefficient of the therapeutic agent (TA) in water at the temperature of interest may be used. […] (Molokhia et al, Exp Eye Res 2008): DTA,37C=DBSA,20C(η20C/η37C)(MWBSA/MWTA)^1/3 where MW refers to the molecular weight of either BSA or the test compound and η is the viscosity of water.
The diffusion constant of the stabilizer can be determined, for example, based on an estimate of hydrodynamic radius corresponding to the cube root of the molecular weight as described herein.
The diffusion coefficients of Table 2 can be determined based on weight for molecular weights up to about 2.5 M Daltons, and based on size above about 2.5 M Daltons.

[3] = in water at 20 C, measured value (Molokhia et al), cited from earlier work

bovine serum albumin [BSA]
diameter [1]: 7.2 nm
Diff Coeff ([2]; Table 2, 37 C, estimated from molecular weight): 9.0E−07 cm^2/s
Diff Coeff ([2]; Temp 37 C, estimated from BSA value at 20 C): 9.1E−07 cm^2/s
Equiv volume ([2]; assumes unit density, per molecule): 109.6 nm^3
D/(Ran D) ([2]; diffusion relative to Ranibizumab): 0.90
Diff Coeff [3]: 6.1E−07 cm^2/s
Diff Coeff ([3]; listed as bovine serum albumin): 6.1 e-7 cm^2/s
